Source: patent US11535838B2, “Serine protease molecules and therapies” (Research Development Foundation, priority 2012, dated 2022)

Tests used:
[1] = tested on: MCF-7 cells; experiment: Cytotoxicity of GrB/IgG constructs; type: cell-based; details: MCF-7, do not express Her2
Text: The constructs above were expressed in mammalian cells from a bicistronic expression vector arranged such that the heavy and light chain antibody polypeptides (or fusions thereof) were secreted. Assembled antibody fusion constructs were purified from the cell media.

[2] = tested on: MDA-MB-453; experiment: Cytotoxic effects of GrB/4D5 fusion constructs with and without a translocation domain; type: cell-based; details: MDA-MB-453, Her2 Exp. High
Text: (§1) Further GrB expression constructs were developed and tested.
(§2) These constructs were expressed and tested.

[3] = tested on: Me-180; experiment: as above; type: cell-based; details: Me-180, Her2 Exp. none
Text: as §1, §2

[4] = tested on: NCI-N87; experiment: as above; type: cell-based; details: NCI-N87, Her2 Exp. High
Text: as §1, §2

[5] = tested on: SKBR3; experiment: as above; type: cell-based; details: SKBR3, Her2 Exp. High
Text: as §1, §2

[6] = tested on: SKOV3; experiment: as above; type: cell-based; details: SKOV3, Her2 Exp. High
Text: as §1, §2

[7] = Enzymatic assay of GrB component, continuous colorimetric assay; type: biochemical; details: substrate BAADT, 25° C., native GrB as standard
Method: The enzymatic activity of the GrB component was determined in a continuous colorimetric assay using N-α-t-butoxycarbonyl-L-alanyl-L-alanyl-L-aspartyl-thiobenzylester (BAADT) as a specific substrate (Liu et al., 2003). Assays consisted of commercial human GrB (Enzyme Systems Products, Livermore, Calif.) or GrB-based fusion proteins in BAADT at 25° C. The change in absorbance at 405 nm was measured on a Thermomax plate reader (Columbia, Md.). Increases in sample absorbance were converted to enzymatic rates by using an extinction coefficient of 13,100 cm^−1 M^−1 at 405 nm. The specific activity of GrB-based fusion proteins was calculated using native GrB as the standard.

[8] = tested on: Calu3; experiment: In vitro cytotoxic effects of GrB-based fusions, crystal violet; type: cell-based; details: Table 11, Calu3, 72 h exposure
[9] = tested on: NCI-N87; experiment: as above; type: cell-based; details: Table 11, NCI-N87, 72 h exposure
[10] = tested on: MDA MB453; experiment: as above; type: cell-based, human; details: Table 11, MDA MB453, 72 h exposure
[11] = tested on: eB-1; experiment: as above; type: cell-based, human; details: Table 11, eB-1, 72 h exposure
[12] = tested on: MDA MB435; experiment: as above; type: cell-based; details: Table 11, MDA MB435, 72 h exposure
[13] = tested on: Me180; experiment: as above; type: cell-based, human; details: Table 11, Me180, 72 h exposure
[14] = tested on: Her2/neu-positive cells; experiment: In vitro cytotoxic effects of GrB-based fusions, summary over tumor cell lines; details: read-out: IC50 / cytotoxic dose; 72 h exposure, summary of Table 11

Substance	IC50 [1] [nM]	IC50 [2] [nM]	IC50 [3] [nM]	IC50 [4] [nM]	IC50 [5] [nM]	IC50 [6] [nM]	GrB enzymatic activity [7]	IC50 [8] [nM]	IC50 [9] [nM]	IC50 [10] [nM]	IC50 [11] [nM]	IC50 [12] [nM]	IC50 [13] [nM]	IC50 [14] [nM]
trastuzumab [Herceptin]	> 1000	–	–	–	–	–	–	–	–	–	–	–	–	–
GrB/4D5: GrB-G4S/218-4D5(Vl-VH); GrB fused to scFv 4D5 without peptide 26	–	> 200	> 200	> 200	> 200	> 200	1.54×10^5 U/μmoL	242	629	436	551	> 750	> 750	> 200
